# Screening results deposited in PubChem BioAssay by National Center for Advancing Translational Sciences (NCATS).
# Sfp PPTase inh = blocks B. subtilis Sfp PPTase activity | Potency, µM, most hits filed as inhibitors | 3.5% of 310,000 active | Biochemical Sfp PPTase activity, qHTS | Q9F4F7;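 also: the enzyme is Sfp with the accession as filed and its product quenches rhodamine fluorescence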
#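 Buffer: 50 mM Hepes-Na pH 7.6, 10 mM MgCl2, 0.01% Nonidet P-40, 0.01% BSA. Enzyme 15 nM, pre-exposed to compound 15 min; substrates then added and fluorescence change tracked over 30 min.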
# KDM4E inh = inhibitors of human JMJD2E histone demethylase. B2RXH2. JMJD2E catalytic domain, FDH-coupled NADH fluorescence (FDH is formaldehyde dehydrogenase). 1.6% of 230,000 active. Potency, µM (series often up to 57.1 µM), hits mostly inhibitors; active = well fitted inhibition curve with a large enough effect, not every such curve was filed as active; inconclusive = small, poorly fitted or top-dose-only effect, or another doubt; inactive = no such curve, though single readings can be large or run the other way; also: nearly all actives have a fitted effect of over 50% in size
# ALDH1A1 inh = blocks purified human ALDH1A1 activity. P00352. Purified ALDH1A1, NADH fluorescence, propionaldehyde substrate. Potency, µM (doses to about 75.3 µM), most hits filed as inhibitors. 7.3% of 220,000 active; active = well fitted inhibition curve with a large enough effect, not every such curve was filed as active; inconclusive = small, poorly fitted or top-dose-only effect, or another doubt; inactive = no such curve, though single readings can be large or run the other way
# LMNA splice mod = LMNA splicing modulation; 0.01% of 200,000 active; HeLa LMNA splicing GFP/RFP minigene ratio, 48 h; Potency, µM (top dose mostly 46.1 µM), most hits filed as inhibitors; active = well fitted inhibition curve with a large enough effect in the signal ratio, with a control signal flat, not every such curve was filed as active; inconclusive = small, poorly fitted or top-dose-only effect, or effect the other way, or a change in a side signal; the % refers to the signal ratio
#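 S3 HeLa cells stably expressing lamin A-EGFP splicing minigene plus DsRed2, 600 cells/well, 48 h compound exposure at 37C. Laser-scanning cytometry; analysed as GFP (500-530 nm)/RFP (575-640 nm) total intensity ratio; 0.5% DMSO vehicle.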
# G9a block = G9a (human) methyltransferase inhibition; AID 504332; 8.8% of 350,000 active; G9a H3K9 monomethylation, AlphaScreen, 2 h; Potency, µM (titrated, usually from 102 µM), usual class: inhibitors; also: nearly all actives have a fitted effect of over 75% in size
#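 G9a (20 nM) was preincubated 15 min with compound, then reacted 2 h at room temperature with 500 nM biotin-H3K9 peptide and 20 µM SAM. Monomethyl-H3K9 detected by AlphaScreen using anti-H3K9me1 antibody.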
# miR-21 reporter = miR-21 reporter, rising signal; Potency, µM (titrated, usually from 38.3 µM); AID 2288; 340,000 tested, under 10 active; HeLa miR-21 FLuc reporter, luciferase, 48 h; active = well fitted rising curve with a large enough effect; inconclusive = small, poorly fitted or top-dose-only effect; inactive = no such curve, though single readings can be large or run the other way;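 note: miR-21 action dims this reporter so a rising signal means less miR-21 action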
#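 HeLa cells stably expressing CMV-driven firefly luciferase with a downstream miR-21 binding sequence, endogenously expressing miR-21, were treated with titrations (up to about 40uM final) for 48 hours at 37 degree Celsius. Luciferase luminescence was read after lysis.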
# Numbers stand for hits; . = inactive; ? = inconclusive; / = no result; [ ] = dose if it differs, or a comment. A selection: hits, their analogues and other compounds. The true share with any hit is near 13%. Unless noted, calls follow the shape of the dose curve; as a rule, active = well fitted curve in the direction sought with a large enough effect; inconclusive = small, poorly fitted or top-dose-only effect, or another doubt; inactive = no such curve, though single readings can be large; an effect the other way counts as inactive or inconclusive.
SMILES,Sfp PPTase inh,KDM4E inh,ALDH1A1 inh,LMNA splice mod,G9a block,miR-21 reporter
O=C(Nc1ccc([N+](=O)[O-])cc1)C1COc2ccccc2O1 (stereo unspecified),.,/,/,/,.[0.501 µM],.
CC(Cc1ccccc1)NC(=O)CN1C(=O)c2ccccc2S1(=O)=O (stereo unspecified),.,/,/,/,.,.
CCN(C(=O)Cn1c(=O)oc2cc(S(=O)(=O)N3CCCCC3)ccc21)c1ccccc1,/,/,/,/,.,.
COc1ccc(C2C(C(C)=O)=C(C)N=c3s/c(=C\c4cc(C)n(C)c4C)c(=O)n32)c(OC)c1 (stereo unspecified),?,.,.,?,?,.
CCOC(=O)C1=C(C)N=c2s/c(=C/c3ccc(OCC(=O)O)cc3)c(=O)n2C1c1ccc(F)cc1 (stereo unspecified),79µM,/,/,/,?,.
CCOC(=O)C1=C(C)N=c2s/c(=C/c3ccc(OCC(=O)O)cc3)c(=O)n2C1c1ccc(SC)cc1 (stereo unspecified),.,/,/,/,/,.
COc1ccc(C2C(C(C)=O)=C(C)N=c3s/c(=C\c4ccco4)c(=O)n32)c(OC)c1 (stereo unspecified),50µM,.,.,.,11µM,.
CCOC(=O)C1=C(C)N=c2s/c(=C/c3ccc(OCC(=O)O)cc3)c(=O)n2C1c1ccc(OC)cc1OC (stereo unspecified),.,/,/,/,50µM,.
CCOC(=O)C1=C(c2ccccc2)N=c2s/c(=C\c3ccco3)c(=O)n2C1c1cccs1 (stereo unspecified),50µM,13µM,?,.,?,.
CCc1ccccc1NC(=O)C1CCCN(c2nnc(-n3c(C)ccc3C)s2)C1 (stereo unspecified),/,/,/,/,.,.
CCCC(C(=O)NCC1CCCO1)N(Cc1ccco1)C(=O)CNS(=O)(=O)c1ccccc1 (stereo unspecified),.,.,11µM,.,.,.
CCCC(C(=O)NC1CCCCC1)N(Cc1ccco1)C(=O)CNS(=O)(=O)c1ccccc1 (stereo unspecified),.,.,10µM,.,.,.
CCC(C(=O)NC1CCCC1)N(Cc1ccco1)C(=O)CNS(=O)(=O)c1ccccc1 (stereo unspecified),.,/,/,/,.,.
N#Cc1cccc(NC(=O)N2CC[C@@]3(CCCN(C(=O)c4ccncc4)C3)C2)c1,.,/,.,/,.[12.7 µM],/
COC(=O)C1CCN(C(=O)COC(=O)c2ccc(OC)c(S(=O)(=O)N3CCCc4ccccc43)c2)CC1,.,.,4.5µM,.,79µM,.
NNC(=O)c1ccc2[nH]c3c(c2c1)CCCC3,.,.,18µM,?,?,.
COC(=O)C1CCN(C(=O)COC(=O)c2ccc3[nH]c4c(c3c2)CCCC4)CC1,/,/,/,/,50µM,/
CCOc1ccccc1N1CCN(C(=O)c2cc3c(C)cc(C)cc3[nH]2)CC1,.,/,/,/,?,.
COc1ccc(C(=O)OCC(=O)NCC2CCCO2)cc1S(=O)(=O)N1CCCc2ccccc21 (stereo unspecified),.,.,.,.,.,.
CCOc1ccccc1N1CCN(C(=O)c2ccc3[nH]c4c(c3c2)CCCC4)CC1,.,?,.,?,40µM,.
COc1ccc(Nc2ccncc2[N+](=O)[O-])cc1,.,.,.,.,.,.
O=[N+]([O-])c1ccc(Nc2ccc(F)cc2)nc1,.,.,.,.,.,.
O=[N+]([O-])c1ccc(Nc2cccc(F)c2)nc1,.,.,.,.,50µM,.
O=[N+]([O-])c1cnccc1Nc1cccc(F)c1,.,.,.,.,7.1µM,.
CCOC(=O)c1cccnc1SCC(=O)Nc1ccc(C)cc1C,/,/,/,.,.,.
SMILES,Sfp PPTase inh,KDM4E inh,ALDH1A1 inh,LMNA splice mod,G9a block,miR-21 reporter
Cc1cc2cc(CCNC(=O)CCc3ccccc3)c(=O)[nH]c2cc1C,.,/,/,/,?,.
CCOc1ccc(N=c2scc(-c3ccc(OC)cc3)n2CCO)cc1,.,.,.,.,2.8µM,.
CCCCn1c(C)csc1=Nc1cccnc1,.,.,.,.,?,.
CCOc1ccc(N=c2scc(-c3ccccc3)n2CCO)cc1,.,.,?,?,16µM,.
CC(C)n1c(-c2ccco2)csc1=Nc1cccnc1,.,.,.,?,13µM,.
COCCn1c(-c2ccccc2)csc1=Nc1cccnc1,.,.,.,.[9.22 µM],40µM,.
COc1ccc(C(=O)C2CCCN(C/C=C/c3ccccc3OC)C2)c(OC)c1 (stereo unspecified),.,.,.,/,/,.
Cc1ccc(-c2csc(=Nc3cccnc3)n2CCCN2CCCC2=O)cc1C,.,.,7.9µM,.,.,.
OCCn1c(-c2ccc(F)cc2)csc1=Nc1ccccc1,.,.,.,?,20µM,.
CCn1c(-c2ccccc2)csc1=Nc1ccc(O)cc1,.,.,?,?,3.5µM,.
CC(C)(C)NC(=O)CN(Cc1ccc2c(c1)OCO2)C(=O)CNS(=O)(=O)c1ccccc1,.,/,/,/,.,.
CC(=O)c1c(C)[nH]c(C(=O)COC(=O)CCCOc2ccccc2)c1C,.,.,.,.,.,.
COc1ccccc1OCCC(=O)OCC(=O)c1[nH]c(C)c(C(C)=O)c1C,.,.,25µM,.,?,.
COCCCNC(=O)CNC(=S)N(Cc1ccccc1F)C1CCCCC1,.,.,14µM,.,.,.
O=C(O)CNC(=S)N(Cc1ccccc1F)C1CCCCC1,.,.,?,.,.,.
CCCCCCNC(=O)CNC(=S)N(Cc1cccs1)C1CCCCC1,.,/,/,/,.,.
CCCCNC(=O)CNC(=S)N(Cc1ccccc1F)C1CCCCC1,.,.,22µM,.,.,.
O=C(CNC(=S)N(Cc1ccc(F)cc1)C1CCCCC1)NCC1CCCO1 (stereo unspecified),.,.,.,.,.,.
O=C(CNC(=S)N(Cc1ccccc1F)C1CCCCC1)NCC1CCCO1 (stereo unspecified),.,.,7.1µM,/,.,.
O=C(C1CCC1)N1CCc2cc(S(=O)(=O)NCCc3ccccc3)ccc21,/,/,/,/,.,.
CCOC(=O)C(C)Sc1nc(-c2ccco2)cc(C(F)(F)F)c1C#N (stereo unspecified),.,?,?,.,40µM,.
Cn1cc(Br)c(C(=O)N/N=C/c2cc3c(cc2Cl)OCO3)n1,.,/,/,/,/,.
CC(=O)c1cccc(S(=O)(=O)NC(C)C2CC3CCC2C3)c1 (stereo unspecified),.,/,/,/,50µM,.
Cc1cccc(NC(=O)C(=O)NCC(c2ccc3c(c2)OCO3)N2CCOCC2)c1C (stereo unspecified),/,/,/,.,.,.
CN(C)c1ccc(/C(=N\O)C(F)(F)F)cc1,.,.,?,?,.,.
CC(C)(NO)/C(=N/O)c1ccc(Br)cc1,?,.,.,.,32µM,.
